These are literature values, as cited in patent US9072749B2, “Treatment of age-related macular degeneration” (priority 2007, dated 2015).

The data set has as its system D1/D5 receptor. Particulars: anesthetized rabbits.

Turning to `Oc1cc2c(cc1O)C(c1ccccc1)CNCC2` (stereo not shown) [SKF-38393], the choroidal vasodilation result is given as “caused a similar vasodilation”.
